{
  "source": "paper PMC8415315",
  "about": "“Maternal Serotonin Reuptake Inhibitor Antidepressants Have Acute Effects on Fetal Heart Rate Variability in Late Gestation” (Frontiers in Psychiatry, 2021)",
  "origin": "cited, not measured here",
  "test_system": "fetal HR",
  "settings": "fetal exposure; ref [48]; cited from earlier work",
  "data": [
    {"substance": "buprenorphine", "values": [
      {"measurement": "Effect on fetal HR and movement", "value": "acute suppressive effect"}
    ]}
  ]
}
